Data published in patent publication US10377698B2, “Diphenethylamine derivatives which are inter alia useful as analgesics and method for their production” (UNIVERSITY OF INNSBRUCK, priority 2015, dated 2019).

Chains of the proteins cited; added tags and fusions are not shown. Lines headed by an entry give the natural chain unless they say otherwise; changes in a name come on top.
UniProt P41145: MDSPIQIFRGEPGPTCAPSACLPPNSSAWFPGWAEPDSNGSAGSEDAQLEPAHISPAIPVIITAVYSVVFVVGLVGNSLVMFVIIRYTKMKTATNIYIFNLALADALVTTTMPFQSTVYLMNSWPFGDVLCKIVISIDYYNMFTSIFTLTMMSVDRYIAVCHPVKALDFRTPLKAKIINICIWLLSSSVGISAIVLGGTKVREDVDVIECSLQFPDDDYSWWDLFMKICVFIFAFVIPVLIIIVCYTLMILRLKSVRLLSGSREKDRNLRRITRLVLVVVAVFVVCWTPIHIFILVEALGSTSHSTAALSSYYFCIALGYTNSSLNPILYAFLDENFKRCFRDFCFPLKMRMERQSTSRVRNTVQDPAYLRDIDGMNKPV

Experiments:
KOR [1] = biological target: T1, KOR (Homo sapiens, UniProt P41145); test: KOR-mediated G protein activation, [35S]GTPγS binding, CHO-hKOR cell membranes; format: biochemical; settings: % of maximum stimulation with respect to reference KOR agonist U69,593
KOR [2] = biological target: T1, KOR; test: KOR-mediated β-arrestin2 recruitment, DiscoveRx PathHunter assay, U2OS-hMOR-β-arrestin2 cells; format: cell-based
[3] = Acetic acid-induced writhing test in mice after s.c. administration; format: in vivo; settings: 30 min after s.c. administration

| SMILES | [35S]GTPγS binding KOR Emax (KOR [1]) [%] | Bias factor (KOR [2]; RAi(β-arrestin2)/RAi(G protein), reference ligand U69,593) | β-arrestin2 recruitment assay Emax (KOR [2]; relative to maximum stimulation of reference KOR agonist U69,593) [%] | ED50 writhing test [3] |
| --- | --- | --- | --- | --- |
| CN(C(=O)Cc1ccccc1)[C@H]1CC[C@@]2(CCCO2)C[C@@H]1N1CCCC1 | 100 | 1 | 100 | – |
| CN(C(=O)Cc1ccc(Cl)c(Cl)c1)[C@@H]1CCCC[C@H]1N1CCCC1 | 93.0 | – | – | 1.54 mg/kg, s.c. |
